Paper PMC3403872, “Contrasting effects of linaclotide and lubiprostone on restitution of epithelial cell barrier properties and cellular homeostasis after exposure to cell stressors” (BMC Pharmacology, 2012)
Where no end group is shown, it is not given here.

Protein sequences, listed by entry. Tags and fused reporters are not part of them. Lines headed by an entry give the natural chain unless they say otherwise; changes in a name come on top.
UniProt Q02747: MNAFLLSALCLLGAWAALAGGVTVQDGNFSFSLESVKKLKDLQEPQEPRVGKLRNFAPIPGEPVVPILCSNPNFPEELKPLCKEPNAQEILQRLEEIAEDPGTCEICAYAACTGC

Tested on: guanylate cyclase, GC-C (T84 cells)

**Q.** Which results are given for “guanylin: well established GC-C activator, Sigma-Aldrich (PGTCEICAYAACTGC; ends and bridges not checked; cysteine pairing not given here; UniProt Q02747 101-115, looked up)”?
**A.** Vmax for increase in [cGMP]i: 9.7 ± 1.3 pmol/10^5 T84 cells; EC50 (read-out: EC50 for increase in [cGMP]i): 29.3 ± 18.4 nM
